The values that follow come from PubChem BioAssay AID624204 (Sanford-Burnham Center for Chemical Genomics, 2012).

Chains of the proteins cited; added tags and fusions are not shown. Residues count along the entry.
UniProt Q9P0U3, 419-644 limits assumed: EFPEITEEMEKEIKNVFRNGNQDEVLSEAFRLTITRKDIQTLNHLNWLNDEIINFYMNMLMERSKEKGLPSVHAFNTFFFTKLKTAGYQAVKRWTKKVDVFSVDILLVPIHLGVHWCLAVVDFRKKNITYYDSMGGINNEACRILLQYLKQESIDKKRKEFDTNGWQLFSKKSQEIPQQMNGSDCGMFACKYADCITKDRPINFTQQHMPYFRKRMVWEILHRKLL

The list shows a part of the results, in another mix than the full data. Some of these compounds have results that are not shown, active ones among them. Active and inactive are the calls of the source.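 How the source made its calls: active means inhibition at least 30% at 10 µM, raw YFP signal under a set limit, fluorescence ratio 0.5 to 1.5; inactive means the rest.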

Usually inhibition stands for the relative decrease from the control value, in per cent.

In the test the target is Sentrin-specific protease 1 (Homo sapiens) (UniProt Q9P0U3). Kind of test: blockers of SENP1 SUMO protease activity – biochemical, FRET, uHTS, primary screen (AID 624204).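 Further: 0% = enzyme with DMSO and 100% = no enzyme wells.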 To be noted: recombinant SENP1 catalytic domain, CyPet-SUMO1-YPet FRET cleavage; at 10 µM; stronger effect = higher value.
Take `O=C(NCC1(N2CCCCC2)CCCCC1)c1cccc(Cl)c1`: the inhibition is inactive: -0.981%.
For `COc1cccc(C(=O)NCC2(N3CCCCC3)CCCCC2)c1`, the inhibition was inactive: 1.8%.
In the case of `COc1ccc(Cl)cc1C(=O)NCC1(N(C)C)CCCCC1`, the inhibition was inactive: 1.72%.
In the case of `COc1cc(C(=O)NCC2(N(C)C)CCCCC2)c([N+](=O)[O-])cc1OC`, the inhibition is inactive: -1.61%.
On to `CN(C)C1(CNC(=O)c2ccc(Br)cc2)CCCCC1`, for which the inhibition was inactive: 0.441%.
With `CN(C)c1cccc(C(=O)NCC2(N(C)C)CCCCC2)c1`, the inhibition was inactive: 0.763%.
In the case of `CC(C)Oc1ccc(C(=O)NCC2(N(C)C)CCCCC2)cc1`, the inhibition was inactive: 0.686%.
Take `O=C(OCCN1CCCC1)C(O)(c1ccccc1)c1ccccc1`: the inhibition was inactive: -3.18%.
On to `COc1ccc(Br)c(C(=O)NCC2(N3CCCCC3)CCCCC2)c1`, for which the inhibition is inactive: -28.4%.
With `C=C(C)C#CC(O)(C(=O)OC1CCN(C)CC1)c1ccccc1` (stereo unspecified), the inhibition was inactive: 0.642%.
Take `O=C(OC1CN2CCC1CC2)C(CO)(c1ccccc1)c1ccccc1` (stereo unspecified): the inhibition was inactive: 0.828%.
In the case of `Cc1ccc(C(=O)NCC2(N3CCCCC3)CCCCC2)cc1`, the inhibition is inactive: -21.8%.
As to `CC(C)N1C(=O)CC2(CCN(CCOC(=O)C(O)(c3ccccc3)c3ccccc3)CC2)C1=O`, the inhibition is inactive: 1.01%.
For the compound `CCN(CC)CC(C)C(C)OC(=O)C(O)(c1ccccc1)c1ccccc1` (stereo unspecified), the inhibition was inactive: 1.45%.
With `COc1cc(SC)ccc1C(=O)NCC1(N(C)C)CCCCC1` the figure was inactive: 1.89%; with `CN1[C@@H]2CC[C@H]1CC(OC(=O)C(O)(c1ccccc1)c1ccccc1)C2` (stereo partly specified), inactive: 0.518%.
Consider `O=C(NCC1(N2CCCCC2)CCCCC1)c1cc([N+](=O)[O-])ccc1Cl`, for which the inhibition was inactive: 11.8%.
Consider `CCN1CCCC(OC(=O)C2(O)c3ccccc3C=Cc3ccccc32)C1` (stereo unspecified), for which the inhibition is inactive: 2%.
Take `Cc1cc(C(=O)NCC2(N3CCCCC3)CCCCC2)ccc1[N+](=O)[O-]`: the inhibition is inactive: -0.452%.
Consider `O=C(NCC1(N2CCCCC2)CCCCC1)c1cccc(Br)c1`, for which the inhibition was inactive: 1.31%.
As to `COc1ccc(C(=O)NCC2(N(C)C)CCCCC2)cc1`, the inhibition was inactive: 1.64%.
Consider `C=CCN1CCN(CCOC(=O)C(O)(c2ccccc2)c2ccccc2)CC1`, for which the inhibition was inactive: -0.266%.
With `O=C(NCC1(N2CCCCC2)CCCCC1)c1cc(F)c(F)cc1Cl`, the inhibition was inactive: -1.19%.
For `Cc1ccccc1C(=O)NCC1(N2CCCCC2)CCCCC1`, the inhibition was inactive: -0.753%.
In the case of `CN(C)c1ccc(C(=O)NCC2(N(C)C)CCCCC2)cc1`, the inhibition was inactive: 1.76%.
With `CN(C)C1CCCC1OC(=O)C(O)(c1ccccc1)c1ccccc1` (stereo unspecified) the figure was inactive: 2.37%.
